Holding throughout (settings): pH 7.5
Assay [1] addresses T1, Tyrosyl-DNA phosphodiesterase 2 (Homo sapiens, UniProt O95551).
T1 sequence (O95551 whole entry): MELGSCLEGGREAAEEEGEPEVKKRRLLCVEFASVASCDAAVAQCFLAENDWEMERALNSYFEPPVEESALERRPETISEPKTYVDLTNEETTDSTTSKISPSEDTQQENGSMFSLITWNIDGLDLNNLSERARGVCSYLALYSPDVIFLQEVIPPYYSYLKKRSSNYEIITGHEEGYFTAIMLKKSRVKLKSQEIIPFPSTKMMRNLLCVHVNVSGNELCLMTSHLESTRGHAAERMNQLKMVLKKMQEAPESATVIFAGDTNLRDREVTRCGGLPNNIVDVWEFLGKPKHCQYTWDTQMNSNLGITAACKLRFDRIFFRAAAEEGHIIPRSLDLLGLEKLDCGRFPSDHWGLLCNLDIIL
Description: Recombinant TDP2 Assay. As for the experimental part: (§1) TDP2 reactions were carried out as described previously23 with the following modifications.

Assay [2] addresses T2, Tyrosyl-DNA phosphodiesterase 2 (Mus musculus, UniProt Q9JJX7).
T2 sequence (Q9JJX7 whole entry): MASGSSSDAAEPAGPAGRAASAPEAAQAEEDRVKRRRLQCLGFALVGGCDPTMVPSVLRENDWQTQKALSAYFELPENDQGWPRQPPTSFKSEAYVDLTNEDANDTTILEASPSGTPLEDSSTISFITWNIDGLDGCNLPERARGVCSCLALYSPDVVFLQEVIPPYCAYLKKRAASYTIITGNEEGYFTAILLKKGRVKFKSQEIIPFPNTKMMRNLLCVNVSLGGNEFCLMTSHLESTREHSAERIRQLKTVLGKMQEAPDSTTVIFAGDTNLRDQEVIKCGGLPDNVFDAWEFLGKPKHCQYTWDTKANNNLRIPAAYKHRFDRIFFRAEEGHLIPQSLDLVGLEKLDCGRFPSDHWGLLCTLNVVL
Put plainly: Recombinant TDP2 Assay. As for the experimental part:
as §1

Assay [3] addresses T3, Tyrosyl-DNA phosphodiesterase 2 [E242G,S244A,Q278R,I281T,K282R,R316G,P318T,Y321CH323L] (Mus musculus, UniProt Q9JJX7, E242G/I281T/K282R/P318T/Q278R/R316G/S244A/Y321CH323L).
T3 sequence (Q9JJX7 whole entry): T2 sequence (Q9JJX7 whole entry) with E242G, S244A, Q278R, I281T, K282R, R316G, P318T, Y321C, H323L
Description: Recombinant TDP2 Assay. The procedure: as §1

Assay [4] has as its target Tyrosyl-DNA phosphodiesterase 2 [E242G,S244A,Q278R,I281T,K282R,R316G,P318T,Y321C] (Mus musculus, UniProt Q9JJX7, E242G/I281T/K282R/P318T/Q278R/R316G/S244A/Y321C). Description: Recombinant TDP2 Assay. As for the experimental part: as §1
For assay [5], the target named is T1, Tyrosyl-DNA phosphodiesterase 2. Description: TDP2 Assays with Whole Cell Extracts. As for the experimental part:
Cell pellets were then resuspended in 100 uL of CelLytic M cell lysis reagent (SIGMA-Aldrich C2978). After 15 min on ice, lysates were centrifuged at 12 000g for 10 min, and supernatants were transferred to a new tube. Protein concentrations were determined using a Nanodrop spectrophotometer (Invitrogen), and whole cell extracts were stored at -80 °C. […] Reactions were terminated and samples analyzed.

Numbering of substitutions follows the chain as printed.

From BindingDB's records for doi:10.1021/acschembio.5b01047 (National Institutes of Health, 2016) come the findings set out here.

As a reminder, the IC50 is the concentration that inhibits the measured activity by half. With `O=c1nc2n(-c3ccccc3)c3ccccc3cc-2c(=O)[nH]1`, the IC50 is 71 µM in assay [1]; above 111 µM in assay [2]; 71 µM in assay [3]; above 111 µM in assay [4]; 20 µM in assay [5].
